Data set [1] addresses T1, Impα3 (Homo sapiens, UniProt O00629).
T1 construct: made in house
T1 sequence (O00629 1-521): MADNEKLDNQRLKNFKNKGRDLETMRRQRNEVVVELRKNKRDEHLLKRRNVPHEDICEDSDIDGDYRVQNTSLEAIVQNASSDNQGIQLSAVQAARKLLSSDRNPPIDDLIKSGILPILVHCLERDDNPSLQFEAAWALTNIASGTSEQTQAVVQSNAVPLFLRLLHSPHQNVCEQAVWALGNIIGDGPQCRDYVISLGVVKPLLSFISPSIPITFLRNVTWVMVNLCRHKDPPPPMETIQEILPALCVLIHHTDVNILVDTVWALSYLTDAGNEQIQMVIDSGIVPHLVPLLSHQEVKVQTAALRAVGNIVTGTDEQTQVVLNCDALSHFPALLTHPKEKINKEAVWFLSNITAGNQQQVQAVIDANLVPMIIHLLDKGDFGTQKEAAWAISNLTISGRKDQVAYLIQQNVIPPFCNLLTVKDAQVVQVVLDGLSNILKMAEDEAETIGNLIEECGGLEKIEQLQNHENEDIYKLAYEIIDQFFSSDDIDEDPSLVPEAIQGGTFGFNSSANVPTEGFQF
In words: Fluorescence titration of Impα3 with NLS1/2-PADI4. In kind it is binding. The note with it: 25 °C. Here is the method:
For the titration between either Impα3 or ΔImpα3 and NLS1/2-PADI4, increasing amounts of the corresponding peptide, in the concentration range 0–20 µM, were added to a solution with a fixed concentration of either Impα3 or ΔImpα3 (3 µM). Experiments were carried out in the same buffer used for the titration of the intact PADI4 at 25 °C. The experimental setup was the same as in the steady-state fluorescence experiments. Blank corrections were subtracted in all cases. Spectra were corrected for inner-filter effects during fluorescence excitation. Each titration (Impα3 with NLS1/2-PADI4 or ΔImpα3 with NLS1/2-PADI4) was repeated three times, using newly prepared samples. In the three cases, the variations in the results were lower than 10%.
Handling and preparation of samples were the same described in Section 2.4.1. The dissociation constant for each complex, Kd, was calculated by fitting the binding isotherm constructed to the general binding model, explicitly considering ligand depletion. […] Fitting to Equation (2) was carried out using KaleidaGraph (Synergy software, Reading, PA, USA).

Data set [2] concerns the target T1, Impα3. In words: Far-UV CD, complex versus addition spectrum, Impα3. In kind it is binding. The note with it: 25 °C; average of six scans. The source says: (§1) Far-UV CD spectra were collected on a Jasco J810 spectropolarimeter (Jasco, Tokyo, Japan) interfaced with a Peltier unit. The instrument was periodically calibrated with (+)-10-camphorsulfonic acid. A cell of path length 0.1 cm was used (Hellma, Kruibeke, Belgium). All spectra were corrected by subtracting the corresponding baseline. Concentration of each polypeptide (importin species and either NLS1/2-PADI4 or PADI4) and the buffers were the same used in the fluorescence experiments (Section 2.4).
(§2) Isothermal wavelength spectra of each isolated macromolecule and that of the complex were acquired as an average of six scans, at a scan speed of 50 nm/min, with a response time of 2 s and a bandwidth of 1 nm. Handling and preparation of samples were the same described in Section 2.4.1.

A short description of data set [3]: Translational diffusion NMR (DOSY). Conditions: for hydrodynamic radius Rh: comparison with D of dioxane; for hydrodynamic radius Rh / translational diffusion coefficient D: single exponential; for translational diffusion coefficient D: methyl groups, 100 mM sodium phosphate pH 7.0, 10 °C, 1% dioxane; for translational diffusion coefficient D / oligomerization state / self-association: 100 µM peptide. In kind it is physicochemical. Here is the method:
The NMR spectra were acquired at 10 °C on a Bruker Avance 500 MHz spectrometer (Bruker GmbH, Karlsruhe, Germany), equipped with a triple resonance probe and z-pulse field gradients. Spectra were processed with Bruker TopSpin 2.1 (Bruker GmbH, Karlsruhe, Germany). All NMR experiments with NLS1/2-PADI4 peptides were carried out in 100 mM sodium phosphate buffer (not corrected for isotope effects), pH 7.0. Spectra were calibrated with TSP, by considering pH-dependent changes of its chemical shifts; probe temperature was calibrated with pure methanol.
The NLS1/2-PADI4 concentration in DOSY experiments was 100 µM, and 128 scans were acquired, where the gradient strength was varied linearly. Details on the experimental conditions and fitting of the resulting curves have been described elsewhere. A final concentration of 1% of dioxane, with an assumed hydrodynamic radius, Rh, of 2.12 Å [54], was added to the solution.

Data set [4] in a line: Size exclusion chromatography (SEC). Conditions: for SEC elution volume: Superdex 75 10/30 HR, Tris 20 mM pH 7.6, 250 mM NaCl, 1 mL/min, 280 nm, NLS1 50–400 µM, NLS2 200–400 µM; for Stokes radius: from SEC elution volume, weight-average partition coefficients. In kind it is physicochemical. Here is the method:
Size exclusion chromatography experiments were carried out as described on an AKTA FPLC using a calibrated analytical Superdex 75 10/30 HR FPLC column (GE Healthcare, Barcelona, Spain) with both peptides in the following concentration ranges: 50–400 µM of protomer concentration for NLS1-PADI4 and 200–400 µM for NLS2-PADI4 peptide. The elution volumes were obtained from analyses with UNICORN software (GE Healthcare, Barcelona, Spain) from three different measurements. The void volume (7.54 ± 0.06 mL) was determined from blue dextran, and the bed volume (18.98 ± 0.03 mL) was determined from conductivity measurements in a Tris elution buffer (20 mM, pH 7.6, and 250 mM NaCl). Samples were eluted at a rate of 1 mL/min and continuously monitored with an online detector at a wavelength of 280 nm. Analyses were carried out as described. The column was calibrated with the standard set of low-molecular-weight (GE Healthcare, Barcelona, Spain) globular proteins; as a comparison, ribonuclease A, with a molecular weight of 13.7 kDa, eluted at 13.3 mL in such a column.
Background: Size exclusion chromatography separates by hydrodynamic size, large species first.

Data set [5] in a line: Far-UV CD of isolated peptide, deconvolution (DICHROWEB). In kind it is physicochemical.
Description: as §1, §2

[6] abbreviates: k2D, 50 mM sodium phosphate pH 7.5, 25 °C.
The mark [7] stands for this setting: DOSY, two-exponential fitting, 100 µM, pH 7.0, 10 °C.

The values below come from article PMC9319256, “Human Enzyme PADI4 Binds to the Nuclear Carrier Importin α3” (Cells, 2022).

“Also recorded” adds a separate entry of the source.

For `CC[C@H](C)[C@H](NC(=O)[C@H](CCCCN)NC(=O)[C@H](CCC(N)=O)NC(=O)[C@H](CCC(N)=O)NC(=O)[C@H](CCCCN)NC(=O)[C@H](CCCCN)NC(=O)[C@H](CCCCN)NC(=O)[C@H](CCCCN)NC(=O)[C@@H](NC(=O)CNC(=O)[C@H](CCC(=O)O)NC(=O)[C@H](Cc1ccccc1)NC(=O)[C@H](CC(C)C)NC(=O)[C@H](CC(C)C)NC(=O)[C@H](C)NC(=O)[C@H](CCC(=O)O)NC(=O)CNC(=O)[C@H](Cc1c[nH]cn1)NC(=O)CNC(=O)[C@H](CCC(=O)O)NC(=O)[C@H](CC(N)=O)NC(=O)[C@H](CCC(N)=O)NC(=O)[C@H](CCC(N)=O)NC(=O)[C@H](CCC(=O)O)NC(=O)[C@H](CCC(N)=O)NC(=O)[C@H](Cc1ccccc1)NC(=O)[C@H](CC(C)C)NC(=O)[C@H](CCCCN)NC(=O)[C@H](Cc1ccc(O)cc1)NC(C)=O)[C@@H](C)CC)C(N)=O` [NLS2-PADI4], the Kd on Impα3 [1] (fluorescence, 3 µM Impα3, 0–20 µM peptide, 20 mM Tris pH 7.5, 5 mM TCEP, 150 mM NaCl, 5% glycerol, titration repeated three times, read-out: dissociation constant) was determined as 4 ± 2 µM. Besides, on Impα3 [2], the “change in far-UV CD spectrum of complex versus addition spectrum” value is “no changes”. For the same molecule, the “hydrodynamic radius Rh” value in data set [3] (DOSY, 100 µM, pH 7.0, 10 °C) was found to be 15.1 ± 0.8 Å. In data set [3] (DOSY), the “translational diffusion coefficient D” value was 9.6 ± 0.3 × 10^−7 cm^2·s^−1. The “oligomerization state / self-association” value in data set [3] (DOSY, pH 7.0, 10 °C) is recorded as “monomeric”. For the same molecule, in data set [4], the SEC elution volume is on record as 15.15 mL and the Stokes radius was found to be 9.64 Å. Besides, the random coil fraction in data set [5] (Contin or Selcon3, pH 7.5, 25 °C) came out at 64%. Further, in data set [5] (setting [6]), the random coil fraction is 55%, the α-helix fraction amounted to 5% and the β-sheet fraction turned out to be 40%.

With `CSCC[C@H](NC(=O)[C@@H](NC(=O)[C@H](CC(C)C)NC(=O)[C@@H](NC(=O)[C@@H](NC(=O)[C@H](CCC(=O)O)NC(=O)[C@@H](NC(=O)CNC(=O)[C@@H]1CCCN1C(=O)[C@H](CC(=O)O)NC(=O)[C@H](CC(C)C)NC(=O)[C@@H]1CCCN1C(=O)[C@H](Cc1c[nH]c2ccccc12)NC(=O)[C@@H](NC(=O)[C@H](CO)NC(=O)[C@H](CO)NC(=O)CNC(=O)[C@@H](NC(=O)[C@H](CO)NC(=O)[C@H](CCCCN)NC(=O)[C@H](CCCCN)NC(=O)[C@H](CCCCN)NC(=O)[C@H](C)NC(C)=O)[C@@H](C)O)[C@@H](C)O)C(C)C)C(C)C)[C@@H](C)O)[C@@H](C)O)C(=O)N[C@@H](CCCCN)C(=O)N[C@H](C(=O)N[C@@H](C)C(=O)N[C@@H](CO)C(N)=O)C(C)C` [NLS1-PADI4], the titration curve outcome at Impα3 [1] (fluorescence at 330 nm, NLS1-PADI4 added to Impα3 (Figure 9B)) was “we could not monitor a reasonable titration curve within the constraints given by the experimental error”. Besides, on Impα3 [2], the “change in far-UV CD spectrum of complex versus addition spectrum” value is recorded as “large changes”. Besides, the “hydrodynamic radius Rh” value in data set [3] (DOSY, 100 µM, pH 7.0, 10 °C) was 17 ± 2 Å. Besides, the “translational diffusion coefficient D” value in data set [3] (DOSY) is recorded as 8.8 ± 0.8 × 10^−7 cm^2·s^−1. In data set [3] (setting [7]), the “D, self-associated species” value is on record as 4 ± 1 × 10^−7 cm^2·s^−1 and the “Rh, self-associated species” value was 34 ± 6 Å. The “oligomerization state / self-association” value in data set [3] (DOSY, pH 7.0, 10 °C) is “hexameric species; also recorded: had a tendency to self-associate at physiological pH”. Besides, the “estimated molecular weight of species in solution” value in data set [3] (from Rh = 0.027 MW^1/2, self-associated species) is listed as 16,421.9 Da. In data set [4], this molecule displayed an SEC elution volume of 14.82 mL and a Stokes radius of 10.7 Å. Moreover, in data set [5] (setting [6]), the random coil fraction came out at 54%, the α-helix fraction turned out to be 9% and the β-sheet fraction was 37%.
